# Where two headings read alike, the source gives them in different places.
# The chains behind the UniProt entries cited, without tags or fusion partners. Where a name states a change or a piece, a line headed by the entry shows the natural chain unless it says otherwise.
# UniProt P32247: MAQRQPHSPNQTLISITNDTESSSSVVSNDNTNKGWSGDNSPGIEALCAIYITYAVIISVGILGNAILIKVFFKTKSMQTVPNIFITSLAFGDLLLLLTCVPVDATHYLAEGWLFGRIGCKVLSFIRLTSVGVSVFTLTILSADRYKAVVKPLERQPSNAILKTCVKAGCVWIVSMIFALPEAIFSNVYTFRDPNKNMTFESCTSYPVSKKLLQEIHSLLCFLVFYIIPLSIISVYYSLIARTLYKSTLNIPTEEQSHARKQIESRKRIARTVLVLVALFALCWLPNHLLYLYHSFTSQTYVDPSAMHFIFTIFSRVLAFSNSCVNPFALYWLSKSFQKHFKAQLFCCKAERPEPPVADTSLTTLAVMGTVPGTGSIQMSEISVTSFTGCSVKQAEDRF
# Legend:
# [1] = molecular target: endogenous human BRS-3 (Bombesin Receptor Subtype-3 G protein-coupled receptor) (human) (UniProt P32247); experiment: cell-based or functional assay
# [2] = molecular target: T1, human BRS-3 (Homo sapiens, UniProt P32247); conditions: read-out: EC50 at BRS-3 in melanophore dispersion assay; melanophores transiently transfected with human BRS-3; representative assay, FIG. 3B
# [3] = molecular target: T1, human BRS-3; conditions: read-out: EC50 at BRS-3 in IP3 accumulation assay; HeLa cells stably transfected with human BRS-3; representative assay, FIG. 3C
# [4] = molecular target: T1, human BRS-3; conditions: read-out: EC50 at BRS-3 in FLIPR assay; HeLa cells stably transfected with human BRS-3; representative assay, FIG. 3A
"EC50 in FLIPR assay (intracellular calcium), HeLa cells stably transfected with human BRS-3 [1] [nM]","EC50 in IP3 accumulation assay, HeLa cells stably transfected with human BRS-3 [1] [nM]","EC50 in melanophore dispersion assay, melanophores transiently transfected with human BRS-3 [1] [nM]",Substance,EC50 [2] [nM],EC50 [3] [nM],EC50 [4] [nM]
0.26,0.13,0.26,"[D-Tyr^6,βAla^11,Phe^13,Nle^14]Bombesin(6-14) (peptide)",–,–,–
–,–,–,"[D-Tyr^6,βAla^11,Phe^13,Nle^14]Bombesin(6-14)",~0.26,~0.13,~0.26

# Source: patent US20110038850A1, “G Protein-Coupled Receptor and Modulators Thereof For The Treatment of Gaba-Related Neurological Disorders Including Sleep-Related Disorders” (priority 2007, published 2011)
